This assay has as its target human-KAT6A (MYST domain 507-778 aa) (Homo sapiens (Human), UniProt Q92794). Description: KAT6A biochemical assay (TR-FRET). Conditions: histone H4 peptide 200 nM, acetyl-CoA 600 nM. From the text: TR-FRET based methods were used for assaying compounds of the present invention for KAT6A enzyme inhibitory activity. TR-FRET is a homogeneous proximity assay where Europium-labelled anti-acetyl lysine antibody binds to the acetylated substrate labelled with biotin, which in turn binds to streptavidin-labelled APC fluorescence acceptor. Europium can transfer energy to APC in the complex and the interaction of two dye-labelled binding partners is detected by the energy transfer between a donor and an acceptor dye and the subsequent light emission by the acceptor dye. KAT6A transfer an acetyl group from acetyl CoA to lysine amino acids of histones/target proteins. […] The plate is further incubated at 25° C. on shaker at 300 rpm and is read in TR-FRET mode (Ex:340 nm; Em: 615 nm and 665 nm) on a plate reader to achieve ˜5-7-fold activity. The percent inhibition was calculated from the ratio of the fluorescence (FL) intensities [(F665/F615)×10000) using the formula […]. IC50 values of the compounds were determined by fitting the dose-response data to sigmoidal curve fitting equation using Graph pad prism software V9.

The chains behind the UniProt entries cited, without tags or fusion partners. Residues count along the entry.
UniProt Q92794, 507-778: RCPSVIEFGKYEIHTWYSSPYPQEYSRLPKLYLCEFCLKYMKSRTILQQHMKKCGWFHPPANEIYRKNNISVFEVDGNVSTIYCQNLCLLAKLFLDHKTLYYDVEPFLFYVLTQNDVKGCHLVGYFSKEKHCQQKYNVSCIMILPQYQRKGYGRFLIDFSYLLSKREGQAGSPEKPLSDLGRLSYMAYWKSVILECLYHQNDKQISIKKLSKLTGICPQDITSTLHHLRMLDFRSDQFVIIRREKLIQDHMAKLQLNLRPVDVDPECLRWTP

For the compound `COc1cccc(OC)c1S(=O)(=O)NC(=O)c1ccc(Cn2cccn2)c(OC)n1` [Compound 203, 5-((1H-pyrazol-1-yl)methyl)-N-((2,6-dimethoxyphenyl)sulfonyl)-6-methoxypicolinamide], the IC50 came out at 9 nM.

For the origin of these results see US20250136553A1, “ACYLSULFONAMIDE KAT6A INHIBITORS” (Olema Pharmaceuticals, Inc., priority 2023, published 2025).
